# Measured values: ChEMBL document CHEMBL3871274 (Eur J Med Chem, 2016)
# Experiments:
# [1] = target: T1, Aurora kinase A (Homo sapiens) (UniProt O14965); assay: Inhibition of GST-tagged Aurora A (123 to 401 residues) (unknown origin) at 50 uM preincubated for 15 mins followed by tetra(LRRWSLG) substrate addition measured for 90 mins by Kinase-Glo luminescence assay
# T1 sequence (whole entry): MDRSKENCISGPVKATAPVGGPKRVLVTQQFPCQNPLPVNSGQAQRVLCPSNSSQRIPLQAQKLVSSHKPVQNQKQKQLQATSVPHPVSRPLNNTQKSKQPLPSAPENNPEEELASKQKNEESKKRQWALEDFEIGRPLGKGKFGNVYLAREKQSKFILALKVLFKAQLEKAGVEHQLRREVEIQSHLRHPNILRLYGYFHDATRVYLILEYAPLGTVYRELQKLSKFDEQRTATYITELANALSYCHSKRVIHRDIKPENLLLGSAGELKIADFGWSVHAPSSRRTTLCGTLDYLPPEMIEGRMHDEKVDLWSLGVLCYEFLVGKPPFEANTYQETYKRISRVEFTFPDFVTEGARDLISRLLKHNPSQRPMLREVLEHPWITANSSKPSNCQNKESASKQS
# [2] = target: T1, Aurora kinase A (Homo sapiens); assay: Inhibition of GST-tagged Aurora A (123 to 401 residues) (unknown origin) at 20 uM preincubated for 15 mins followed by tetra(LRRWSLG) substrate addition measured for 90 mins by Kinase-Glo luminescence assay
smiles,measurement,setting,value
O=[N+]([O-])c1cc([N+](=O)[O-])c2cn[nH]c2c1,inhibition,[1],22%
same,inhibition,[2],10%
